Laboratory results from patent US20230055961A1, “PENTAFLUOROBENZENESULFONAMIDE DERIVATIVES AND USES THEREOF” (Dunad Therapeutics Ltd., priority 2019, published 2023).

Chains of the proteins cited; added tags and fusions are not shown.
UniProt Q06187, whole entry, species assumed: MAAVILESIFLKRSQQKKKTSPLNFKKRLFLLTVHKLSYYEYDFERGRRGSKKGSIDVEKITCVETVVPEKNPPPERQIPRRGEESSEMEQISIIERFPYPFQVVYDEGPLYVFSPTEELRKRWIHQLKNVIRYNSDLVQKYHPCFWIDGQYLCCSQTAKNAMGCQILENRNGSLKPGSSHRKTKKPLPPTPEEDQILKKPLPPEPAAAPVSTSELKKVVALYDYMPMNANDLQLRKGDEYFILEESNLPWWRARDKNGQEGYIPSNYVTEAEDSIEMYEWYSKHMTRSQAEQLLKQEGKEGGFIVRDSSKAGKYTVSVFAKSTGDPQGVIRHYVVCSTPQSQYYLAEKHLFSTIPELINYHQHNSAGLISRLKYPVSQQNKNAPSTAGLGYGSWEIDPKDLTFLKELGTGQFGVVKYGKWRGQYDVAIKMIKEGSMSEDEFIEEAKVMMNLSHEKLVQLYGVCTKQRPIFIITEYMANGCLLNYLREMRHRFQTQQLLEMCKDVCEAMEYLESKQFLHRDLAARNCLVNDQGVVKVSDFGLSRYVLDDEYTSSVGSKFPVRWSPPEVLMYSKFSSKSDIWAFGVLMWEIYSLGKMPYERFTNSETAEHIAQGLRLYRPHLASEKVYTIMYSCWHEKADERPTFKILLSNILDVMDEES

Molecular target: BTK (Homo sapiens, UniProt Q06187)
Experiment: In vitro BTK inhibition, biochemical IC50 (no preincubation)
Details: Table 8

**Q.** With `C=CC(=O)Nc1cccc(Nc2nc(Nc3ccc(OCCOC)cc3)ncc2F)c1` [Spebrutinib] as the compound, how does the IC50 read?
**A.** The IC50 was 10 to 100 nM.
